Results reported in patent US8263596B2, “Kinase inhibitors and method of treating cancer” (University Health Network, priority 2010, dated 2012).
pIC50: −log10 of the molar value.

Sequences of proteins named here, by UniProt entry; tags and fusion partners are left off. Residues count along the entry.
UniProt P36888, 27-993: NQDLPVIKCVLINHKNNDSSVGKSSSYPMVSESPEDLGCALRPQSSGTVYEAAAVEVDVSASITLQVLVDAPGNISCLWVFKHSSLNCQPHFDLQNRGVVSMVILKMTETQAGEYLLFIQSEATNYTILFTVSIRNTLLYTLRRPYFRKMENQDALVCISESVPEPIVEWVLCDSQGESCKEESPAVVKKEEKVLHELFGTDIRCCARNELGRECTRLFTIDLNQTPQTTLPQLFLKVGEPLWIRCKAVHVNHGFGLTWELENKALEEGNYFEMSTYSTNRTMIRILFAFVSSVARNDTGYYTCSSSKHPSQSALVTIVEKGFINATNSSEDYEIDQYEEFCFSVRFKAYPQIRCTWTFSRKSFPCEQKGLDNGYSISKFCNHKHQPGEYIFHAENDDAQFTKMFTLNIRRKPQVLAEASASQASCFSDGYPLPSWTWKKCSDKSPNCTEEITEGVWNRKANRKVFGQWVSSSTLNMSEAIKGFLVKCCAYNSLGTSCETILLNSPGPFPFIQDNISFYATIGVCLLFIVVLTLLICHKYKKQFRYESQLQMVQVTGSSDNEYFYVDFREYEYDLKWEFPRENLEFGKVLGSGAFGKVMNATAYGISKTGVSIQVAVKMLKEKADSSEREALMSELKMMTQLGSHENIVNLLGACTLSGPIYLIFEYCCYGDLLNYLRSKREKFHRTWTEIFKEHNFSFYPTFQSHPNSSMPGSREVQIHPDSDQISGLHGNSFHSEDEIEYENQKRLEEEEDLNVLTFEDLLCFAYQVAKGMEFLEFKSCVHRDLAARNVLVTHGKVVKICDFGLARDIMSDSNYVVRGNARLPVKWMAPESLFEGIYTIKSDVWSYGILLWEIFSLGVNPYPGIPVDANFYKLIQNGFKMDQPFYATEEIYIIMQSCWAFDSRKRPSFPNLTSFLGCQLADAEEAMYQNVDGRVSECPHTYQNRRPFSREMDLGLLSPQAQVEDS

Target: T1, FLT3 (Homo sapiens, UniProt P36888)
T1 construct: purchased Invitrogen PV3182
Assay: FLT3 inhibition assay (Z-Lyte)
Assay type: biochemical
Details: read-out: IC50 Ranges Flt3

`COc1ccc2c(c1)[C@]1(C[C@H]1c1ccc3c(C#Cc4ccc(CN5CCOCC5)cc4)n[nH]c3c1)C(=O)N2` (relative stereo) [Example A138, (1R*,2S*)-5′-methoxy-2-(3-((4-(morpholinomethyl)phenyl)ethynyl)-1H-indazol-6-yl)spiro[cyclopropane-1,3′-indolin]-2′-one 2,2,2-trifluoroacetate] was tested, and the pIC50 was 6.00 to 7.00.
